Two molecules from ChEMBL document CHEMBL1152554, “Synthesis and pharmacological evaluation of 6-naltrexamine analogs for alcohol cessation” (Bioorg Med Chem, 2009) can be followed below.

By UniProt entry, the sequences of proteins in these tests, tags left out. Where a name states a change or a piece, a line headed by the entry shows the natural chain unless it says otherwise.
UniProt P41146: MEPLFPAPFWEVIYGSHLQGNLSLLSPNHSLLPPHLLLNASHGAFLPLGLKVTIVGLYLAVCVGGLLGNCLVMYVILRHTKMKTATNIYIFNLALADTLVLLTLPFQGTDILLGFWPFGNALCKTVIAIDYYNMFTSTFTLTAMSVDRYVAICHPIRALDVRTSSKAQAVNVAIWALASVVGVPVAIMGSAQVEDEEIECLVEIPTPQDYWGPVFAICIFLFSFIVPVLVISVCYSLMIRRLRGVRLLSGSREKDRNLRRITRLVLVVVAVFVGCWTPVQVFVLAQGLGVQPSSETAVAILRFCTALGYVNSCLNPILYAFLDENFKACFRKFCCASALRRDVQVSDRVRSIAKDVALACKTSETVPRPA

Structures are written as SMILES.

Experiment [1] concerns the target Nociceptin receptor (Homo sapiens, UniProt P41146). Put plainly: Inverse agonist activity at NOP expressed in HEK293 cells assessed as inhibition of [35S]GTPgammaS binding relative to basal level. The format is functional, cell-based.
For experiment [2], the system named is Rattus norvegicus. Put plainly: Inhibition of ethanol intake in Wistar rat at 12.5 ug/kg, sc by alcohol-self administration test. The class given is functional. The arrangement: scale not given: the % may be the effect or the level left.
Experiment [3] has as its system Rattus norvegicus. In words: Inhibition of ethanol intake in Wistar rat at 25 ug/kg, sc by alcohol-self administration test. The class given is functional. The arrangement: scale not given: the % may be the effect or the level left.

Take `O=C(N[C@@H]1CC[C@@]2(O)[C@H]3Cc4ccc(O)c5c4[C@@]2(CCN3CC2CC2)[C@H]1O5)c1ccc(Cl)cc1`: the Emax in experiment [1] stood at 320%.

In the case of `C=C1CC[C@@]2(O)[C@H]3Cc4ccc(O)c5c4[C@@]2(CCN3CC2CC2)[C@H]1O5`, the values for the Activity in experiment [2] and in experiment [3] were 26.1% and 22.2%, respectively.
